{"source": "patent US10376553B2", "about": "“Pharmaceutical composition for preventing and treating chronic obstructive lung disease containing, as active ingredient, Magnoliae flos extract, fraction, or active fraction thereof” (KOREA RESEARCH INSTITUTE OF BIOSCIENCE AND BIOTECHNOLOGY, priority 2015, dated 2019)", "test_system": "H292 cells", "test": "Cytotoxicity (CCK-8 cell viability) of the compounds of Magnoliae flos in H292 cells", "type": "cell-based, human", "details": "24 h, vs 0.2% DMSO control = 100%", "method": "Then, 10 μl of the CCK-8 solution (Dojindo Laboratories, Japan) was mixed with 90 μl of the medium, and 100 μl thereof was added per well. After incubation for a minimum of 30 minutes to a maximum of 4 hours, the absorbance was measured at 570 nm. The cell viability was calculated according to the following Equation 2 with a negative control group treated with 0.2% DMSO as a reference of 100%.\nCell viability=(Compound treated OD 570 nm value)×100/(Negative control group OD 570 nm value) [Equation 2]", "data": [{"smiles": "COc1ccc([C@H]2OC[C@H]3[C@@H]2CO[C@@H]3c2ccc(OC)c(OC)c2)cc1OC", "note": "[Compound S1, dimethylpinoresinol]", "values": [{"measurement": "Viability of H292 cells (%, average ± deviation)", "setting": "20 μM", "value": "114.08 ± 0.57", "unit": "%"}]}, {"smiles": "COc1cc([C@H]2OC[C@H]3[C@@H]2CO[C@@H]3c2cc(OC)c(OC)c(OC)c2)cc(OC)c1OC", "note": "[Compound S3, dimethylliroresinol]", "values": [{"measurement": "Viability of H292 cells (%, average ± deviation)", "setting": "5 μM", "value": "102.75 ± 2.89", "unit": "%"}, {"measurement": "Viability of H292 cells (%, average ± deviation)", "setting": "10 μM", "value": "101.84 ± 3.42", "unit": "%"}, {"measurement": "Viability of H292 cells (%, average ± deviation)", "setting": "20 μM", "value": "102.12 ± 2.44", "unit": "%"}]}, {"smiles": "COc1cc([C@H]2OC[C@H]3[C@@H]2CO[C@@H]3c2ccc3c(c2)OCO3)cc(OC)c1OC", "note": "[Compound S6, aschantin]", "values": [{"measurement": "Viability of H292 cells (%, average ± deviation)", "setting": "2.5 μM", "value": "102.36 ± 2.79", "unit": "%"}, {"measurement": "Viability of H292 cells (%, average ± deviation)", "setting": "5 μM", "value": "104.19 ± 1.21", "unit": "%"}, {"measurement": "Viability of H292 cells (%, average ± deviation)", "setting": "10 μM", "value": "101.90 ± 1.26", "unit": "%"}, {"measurement": "Viability of H292 cells (%, average ± deviation)", "setting": "20 μM", "value": "104.19 ± 1.12", "unit": "%"}]}]}
